Assay results published in PMC4423116, “Tarantula toxins use common surfaces for interacting with Kv and ASIC ion channels” (eLife, 2015).

Biological target: T1, Kv2.1 channel (Rattus norvegicus, UniProt P15387)
T1 construct: expressed in transfected cells; host or cells: Xenopus laevis oocytes, cRNA injection
T1 sequence (P15387 1-857): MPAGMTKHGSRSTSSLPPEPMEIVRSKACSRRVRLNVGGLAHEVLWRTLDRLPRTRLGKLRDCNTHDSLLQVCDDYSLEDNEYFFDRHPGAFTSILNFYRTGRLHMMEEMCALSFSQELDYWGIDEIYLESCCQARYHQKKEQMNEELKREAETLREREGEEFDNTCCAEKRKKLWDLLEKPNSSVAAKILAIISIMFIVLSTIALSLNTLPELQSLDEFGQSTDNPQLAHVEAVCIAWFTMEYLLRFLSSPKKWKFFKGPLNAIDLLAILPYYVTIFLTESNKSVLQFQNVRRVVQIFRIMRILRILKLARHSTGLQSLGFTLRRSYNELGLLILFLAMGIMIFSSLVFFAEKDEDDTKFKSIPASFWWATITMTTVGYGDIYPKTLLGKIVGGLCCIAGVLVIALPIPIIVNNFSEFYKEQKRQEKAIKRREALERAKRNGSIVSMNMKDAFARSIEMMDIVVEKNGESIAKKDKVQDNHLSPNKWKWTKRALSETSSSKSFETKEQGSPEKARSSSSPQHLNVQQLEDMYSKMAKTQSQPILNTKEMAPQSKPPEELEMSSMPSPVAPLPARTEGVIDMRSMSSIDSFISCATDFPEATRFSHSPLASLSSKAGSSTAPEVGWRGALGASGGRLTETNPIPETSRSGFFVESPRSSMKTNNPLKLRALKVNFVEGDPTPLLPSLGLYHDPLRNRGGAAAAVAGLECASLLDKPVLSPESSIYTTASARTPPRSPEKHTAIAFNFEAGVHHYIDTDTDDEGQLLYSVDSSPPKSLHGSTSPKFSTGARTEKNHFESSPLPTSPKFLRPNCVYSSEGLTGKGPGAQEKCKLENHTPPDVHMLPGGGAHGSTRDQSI
Test: Inhibition of Kv2.1 channel currents in Xenopus oocytes (two-electrode voltage clamp), apparent affinity
Type: cell-based
Settings: Kv2.1 in oocytes; for ∆∆G (perturbation energy): from apparent Kd of mutant vs GxTx-1E(Nle); for Kd^mut/Kd^wt: ratio of apparent Kd of mutant to GxTx-1E(Nle)

Row | SMILES | ∆∆G (perturbation energy) | Kd^mut/Kd^wt
1 | CCCC[C@H](NC(=O)[C@@H]1CCCN1C(=O)[C@H](Cc1ccccc1)NC(=O)[C@H](CC(N)=O)NC(=O)[C@@H]1CSSC[C@@H]2NC(=O)[C@H](C)NC(=O)[C@@H]3CCCN3C(=O)[C@H](CCCCN)NC(=O)CNC(=O)[C@H](CO)NC(=O)CNC(=O)[C@@H]3CSSC[C@H](NC(=O)[C@H](C(C)C)NC(=O)[C@H](Cc4ccc(O)cc4)NC(=O)[C@H](CCCCN)NC(=O)[C@@H]4CCCN4C(=O)[C@H](CSSC[C@H](NC(=O)[C@H](CCC(=O)O)NC(=O)CNC(=O)[C@@H](N)CCC(=O)O)C(=O)NCC(=O)NCC(=O)N[C@@H](Cc4ccccc4)C(=O)N[C@@H](Cc4c[nH]c5ccccc45)C(=O)N[C@@H](Cc4c[nH]c5ccccc45)C(=O)N[C@@H](C)C(=O)N3)NC2=O)C(=O)N[C@@H](CO)C(=O)N2CCC[C@H]2C(=O)N[C@@H](CCCCN)C(=O)N[C@@H](Cc2c[nH]c3ccccc23)C(=O)NCC(=O)N[C@@H](CC(C)C)C(=O)N1)C(=O)N1CCC[C@H]1C(=O)O [Toxin K10A] | 0.88 kcal/mol | 4.4
2 | CCCC[C@H](NC(=O)[C@@H]1CCCN1C(=O)[C@H](Cc1ccccc1)NC(=O)[C@H](CC(N)=O)NC(=O)[C@@H]1CSSC[C@@H]2NC(=O)[C@H](C)NC(=O)[C@@H]3CCCN3C(=O)[C@H](C)NC(=O)CNC(=O)[C@H](CO)NC(=O)CNC(=O)[C@@H]3CSSC[C@H](NC(=O)[C@H](C(C)C)NC(=O)[C@H](Cc4ccc(O)cc4)NC(=O)[C@H](CCCCN)NC(=O)[C@@H]4CCCN4C(=O)[C@H](CSSC[C@H](NC(=O)[C@H](CCC(=O)O)NC(=O)CNC(=O)[C@@H](N)CCC(=O)O)C(=O)NCC(=O)NCC(=O)N[C@@H](Cc4ccccc4)C(=O)N[C@@H](Cc4c[nH]c5ccccc45)C(=O)N[C@@H](Cc4c[nH]c5ccccc45)C(=O)N[C@@H](CCCCN)C(=O)N3)NC2=O)C(=O)N[C@@H](CO)C(=O)N2CCC[C@H]2C(=O)N[C@@H](CCCCN)C(=O)N[C@@H](Cc2c[nH]c3ccccc23)C(=O)NCC(=O)N[C@@H](CC(C)C)C(=O)N1)C(=O)N1CCC[C@H]1C(=O)O [Toxin K15A] | 0.77 kcal/mol | 3.7
3 | CCCC[C@H](NC(=O)[C@@H]1CCCN1C(=O)[C@H](Cc1ccccc1)NC(=O)[C@H](CC(N)=O)NC(=O)[C@@H]1CSSC[C@@H]2NC(=O)[C@H](C)NC(=O)[C@@H]3CCCN3C(=O)[C@H](CCCCN)NC(=O)CNC(=O)[C@H](CO)NC(=O)CNC(=O)[C@@H]3CSSC[C@H](NC(=O)[C@H](C(C)C)NC(=O)[C@H](Cc4ccc(O)cc4)NC(=O)[C@H](C)NC(=O)[C@@H]4CCCN4C(=O)[C@H](CSSC[C@H](NC(=O)[C@H](CCC(=O)O)NC(=O)CNC(=O)[C@@H](N)CCC(=O)O)C(=O)NCC(=O)NCC(=O)N[C@@H](Cc4ccccc4)C(=O)N[C@@H](Cc4c[nH]c5ccccc45)C(=O)N[C@@H](Cc4c[nH]c5ccccc45)C(=O)N[C@@H](CCCCN)C(=O)N3)NC2=O)C(=O)N[C@@H](CO)C(=O)N2CCC[C@H]2C(=O)N[C@@H](CCCCN)C(=O)N[C@@H](Cc2c[nH]c3ccccc23)C(=O)NCC(=O)N[C@@H](CC(C)C)C(=O)N1)C(=O)N1CCC[C@H]1C(=O)O [Toxin K21A] | 0.40 kcal/mol | 2.0
4 | CCCC[C@H](NC(=O)[C@@H]1CCCN1C(=O)[C@H](Cc1ccccc1)NC(=O)[C@H](CC(N)=O)NC(=O)[C@@H]1CSSC[C@@H]2NC(=O)[C@H](C)NC(=O)[C@@H]3CCCN3C(=O)[C@H](CCCCN)NC(=O)CNC(=O)[C@H](CO)NC(=O)CNC(=O)[C@@H]3CSSC[C@H](NC(=O)[C@H](C(C)C)NC(=O)[C@H](Cc4ccc(O)cc4)NC(=O)[C@H](CCCCN)NC(=O)[C@@H]4CCCN4C(=O)[C@H](CSSC[C@H](NC(=O)[C@H](CCC(=O)O)NC(=O)CNC(=O)[C@@H](N)CCC(=O)O)C(=O)NCC(=O)NCC(=O)N[C@@H](Cc4ccccc4)C(=O)N[C@@H](Cc4c[nH]c5ccccc45)C(=O)N[C@@H](Cc4c[nH]c5ccccc45)C(=O)N[C@@H](CCCCN)C(=O)N3)NC2=O)C(=O)N[C@@H](CO)C(=O)N2CCC[C@H]2C(=O)N[C@@H](C)C(=O)N[C@@H](Cc2c[nH]c3ccccc23)C(=O)NCC(=O)N[C@@H](CC(C)C)C(=O)N1)C(=O)N1CCC[C@H]1C(=O)O [Toxin K27A] | 0.73 kcal/mol | 3.4
5 | CCCC[C@H](NC(=O)[C@@H]1CCCN1C(=O)[C@H](Cc1ccccc1)NC(=O)[C@H](CC(N)=O)NC(=O)[C@@H]1CSSC[C@@H]2NC(=O)[C@H](C)NC(=O)[C@@H]3CCCN3C(=O)[C@H](CCCCN)NC(=O)CNC(=O)[C@H](CO)NC(=O)CNC(=O)[C@@H]3CSSC[C@H](NC(=O)[C@H](C(C)C)NC(=O)[C@H](Cc4ccc(O)cc4)NC(=O)[C@H](CCCCN)NC(=O)[C@@H]4CCCN4C(=O)[C@H](CSSC[C@H](NC(=O)[C@H](CCC(=O)O)NC(=O)CNC(=O)[C@@H](N)CCC(=O)O)C(=O)NCC(=O)NCC(=O)N[C@@H](Cc4ccccc4)C(=O)N[C@@H](Cc4c[nH]c5ccccc45)C(=O)N[C@@H](Cc4c[nH]c5ccccc45)C(=O)N[C@@H](CCCCN)C(=O)N3)NC2=O)C(=O)N[C@@H](CO)C(=O)N2CCC[C@H]2C(=O)N[C@@H](CCCCN)C(=O)N[C@@H](Cc2c[nH]c3ccccc23)C(=O)NCC(=O)N[C@@H](C)C(=O)N1)C(=O)N1CCC[C@H]1C(=O)O [Toxin L30A] | 1.42 kcal/mol | 11.0
6 | CCCC[C@H](NC(=O)[C@@H]1CCCN1C(=O)[C@H](Cc1ccccc1)NC(=O)[C@H](C)NC(=O)[C@@H]1CSSC[C@@H]2NC(=O)[C@H](C)NC(=O)[C@@H]3CCCN3C(=O)[C@H](CCCCN)NC(=O)CNC(=O)[C@H](CO)NC(=O)CNC(=O)[C@@H]3CSSC[C@H](NC(=O)[C@H](C(C)C)NC(=O)[C@H](Cc4ccc(O)cc4)NC(=O)[C@H](CCCCN)NC(=O)[C@@H]4CCCN4C(=O)[C@H](CSSC[C@H](NC(=O)[C@H](CCC(=O)O)NC(=O)CNC(=O)[C@@H](N)CCC(=O)O)C(=O)NCC(=O)NCC(=O)N[C@@H](Cc4ccccc4)C(=O)N[C@@H](Cc4c[nH]c5ccccc45)C(=O)N[C@@H](Cc4c[nH]c5ccccc45)C(=O)N[C@@H](CCCCN)C(=O)N3)NC2=O)C(=O)N[C@@H](CO)C(=O)N2CCC[C@H]2C(=O)N[C@@H](CCCCN)C(=O)N[C@@H](Cc2c[nH]c3ccccc23)C(=O)NCC(=O)N[C@@H](CC(C)C)C(=O)N1)C(=O)N1CCC[C@H]1C(=O)O [Toxin N32A] | 1.01 kcal/mol | 5.5
7 | CCCC[C@H](NC(=O)[C@@H]1CCCN1C(=O)[C@H](Cc1ccccc1)NC(=O)[C@H](CC(N)=O)NC(=O)[C@@H]1CSSC[C@@H]2NC(=O)[C@H](C)NC(=O)[C@H](C)NC(=O)[C@H](CCCCN)NC(=O)CNC(=O)[C@H](CO)NC(=O)CNC(=O)[C@@H]3CSSC[C@H](NC(=O)[C@H](C(C)C)NC(=O)[C@H](Cc4ccc(O)cc4)NC(=O)[C@H](CCCCN)NC(=O)[C@@H]4CCCN4C(=O)[C@H](CSSC[C@H](NC(=O)[C@H](CCC(=O)O)NC(=O)CNC(=O)[C@@H](N)CCC(=O)O)C(=O)NCC(=O)NCC(=O)N[C@@H](Cc4ccccc4)C(=O)N[C@@H](Cc4c[nH]c5ccccc45)C(=O)N[C@@H](Cc4c[nH]c5ccccc45)C(=O)N[C@@H](CCCCN)C(=O)N3)NC2=O)C(=O)N[C@@H](CO)C(=O)N2CCC[C@H]2C(=O)N[C@@H](CCCCN)C(=O)N[C@@H](Cc2c[nH]c3ccccc23)C(=O)NCC(=O)N[C@@H](CC(C)C)C(=O)N1)C(=O)N1CCC[C@H]1C(=O)O [Toxin P16A] | 2.75 kcal/mol | 102.5
8 | CCCC[C@H](NC(=O)[C@@H]1CCCN1C(=O)[C@H](Cc1ccccc1)NC(=O)[C@H](CC(N)=O)NC(=O)[C@@H]1CSSC[C@@H]2NC(=O)[C@H](C)NC(=O)[C@@H]3CCCN3C(=O)[C@H](CCCCN)NC(=O)CNC(=O)[C@H](CO)NC(=O)CNC(=O)[C@@H]3CSSC[C@H](NC(=O)[C@H](C(C)C)NC(=O)[C@H](Cc4ccc(O)cc4)NC(=O)[C@H](CCCCN)NC(=O)[C@H](C)NC(=O)[C@H](CSSC[C@H](NC(=O)[C@H](CCC(=O)O)NC(=O)CNC(=O)[C@@H](N)CCC(=O)O)C(=O)NCC(=O)NCC(=O)N[C@@H](Cc4ccccc4)C(=O)N[C@@H](Cc4c[nH]c5ccccc45)C(=O)N[C@@H](Cc4c[nH]c5ccccc45)C(=O)N[C@@H](CCCCN)C(=O)N3)NC2=O)C(=O)N[C@@H](CO)C(=O)N2CCC[C@H]2C(=O)N[C@@H](CCCCN)C(=O)N[C@@H](Cc2c[nH]c3ccccc23)C(=O)NCC(=O)N[C@@H](CC(C)C)C(=O)N1)C(=O)N1CCC[C@H]1C(=O)O [Toxin P20A] | 0.63 kcal/mol | 2.9
